Literature values in paper PMC6408977 (Journal of controlled release : official journal of the …, 2019).

Conditions: read-out: KD of HSA to DMPC lipid vesicles; cited from earlier work

For HSA: human serum albumin, the Kd is listed as 6.7 mM.
